Laboratory results as given in patent US20220117911A1, “METHODS AND COMPOSITIONS FOR MODULATING BLOOD-BRAIN BARRIER” (INSERM (institut National de la Santé et de la Recherche …, priority 2019, published 2022).

Test system: hPBMEC monolayers
Assay: TEER of in vitro human BBB model using hPBMECs on Transwell
Format: cell-based
Conditions: 1 μM CBD, 120 h post seeding
Protocol: Human Primary Brain Microvascular Endothelial Cells (hPBMECs). Brain capillary endothelial cells were isolated from surgical resections of patients with brain tumors. The experimentation was conducted in compliance with the French legislation, and the protocol was permitted by the French Ministry of Higher Education and Research (CODECOH DC-2014-2229). In brief, brain capillaries were isolated using soft digestion of patient brain peritumoral tissues and then seeded. Brain primary microvascular endothelial cells were shortly amplified and seeded on Transwell® (Corning) with microporous membranes (pore size: 0.4 μm) in monoculture or in co-culture with the same patient's fresh primary human cultured astrocytes. Cells were cultured in EBM-2 medium (Lonza, Basel, Switzerland) supplemented with 20% serum and growth factors (Sigma).
To study the effect of CBD on in vitro human BBB model formation, hPBMECs were isolated from surgical resections of a fourth patient (patient 4: a person suffering from glioma, peritumoral biopsy). hPBMECs were then seeded onto Transwell® inserts with glial cells conditioned medium (50/50). After 24 h co-culture, CBD (1 μM) or the same proportion of vehicle was added into the cell inserts. […] The TEER values expressed in Ω·cm2 were recorded after 1, 2, 4, 10, 24, 31, 48, 72, 96, 120 h of CBD treatment.

## C=C(C)[C@@H]1CCC(C)=C[C@H]1c1c(O)cc(CCCCC)cc1O [CBD, cannabidiol]
  increase of TEER: 16.5±2.0%
